The results in this text go back to patent US7125872B2, “β-sheet mimetics and use thereof as inhibitors of biologically active peptides or proteins” (Myriad Genetics, Inc., priority 1995, dated 2006).

Sequences of proteins named here, by UniProt entry; tags and fusion partners are left off. Residues count along the entry.
UniProt P00742, 41-179 limits assumed: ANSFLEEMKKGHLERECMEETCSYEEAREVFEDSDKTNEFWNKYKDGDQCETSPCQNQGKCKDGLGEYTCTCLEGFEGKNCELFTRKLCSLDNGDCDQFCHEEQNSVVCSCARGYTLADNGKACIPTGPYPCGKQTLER
UniProt P00742, 235-488 limits assumed: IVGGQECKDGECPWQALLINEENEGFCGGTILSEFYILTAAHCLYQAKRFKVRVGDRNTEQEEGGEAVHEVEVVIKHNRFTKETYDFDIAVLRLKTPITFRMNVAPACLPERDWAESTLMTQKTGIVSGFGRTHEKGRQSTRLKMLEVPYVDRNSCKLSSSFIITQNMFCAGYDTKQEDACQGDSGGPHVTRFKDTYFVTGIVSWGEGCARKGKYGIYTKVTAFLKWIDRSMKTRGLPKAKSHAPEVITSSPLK

This assay addresses Factor X (Homo sapiens, UniProt P00742). As to the kind of experiment: Factor X inhibition assay, Ki, enzyme source not stated. It counts as biochemical. The following applies: read-out: Ki Factor X; not marked bovine plasma.

What is called Ki is a measure of affinity in units of concentration, obtained from inhibition or displacement.

For `N=C(N)NC(=O)NC[C@H](NC(=O)[C@@H]1CCN2CC[C@@](N)(Cc3ccccc3)C(=O)N12)C(=O)c1nc2ccccc2s1`, the inhibition constant (Ki) is 57 µM.

As for `COC(=O)c1cnc(C(=O)[C@H](CCCNC(=N)N)NC(=O)[C@@H]2CCN3CC[C@@](N)(Cc4ccccc4)C(=O)N23)[nH]1`, the Ki worked out at 38 µM.
